Biological target: DEN2V NS2B-G4SG4-NS3 serine protease (Dengue virus type 2, UniProt Q91H74)
Test: DEN2V protease inhibition assay
Conditions: not given

Row | SMILES | IC50
1 | COc1ncc(-c2ccc(C[n+]3cc([N-]C(=O)Nc4cc(NC(=O)Cc5ccccc5Cl)cc(C(F)(F)F)c4)on3)cc2)c(C)n1 [Example 21, ((3-(2-(2-Chlorophenyl)acetamido)-5-(trifluoromethyl)phenyl)carbamoyl)(3-(4-(2-methoxy-4-methylpyrimidin-5-yl)benzyl)-1,2,3-oxadiazol-3-ium-5-yl)amide] | < 0.1 µM
2 | O=C(CC1(N2CCCC2)COC1)Nc1cc(NC(=O)[N-]c2c[n+](Cc3ccccn3)no2)cc(C(F)(F)F)c1 [Example 86, (3-(Pyridin-2-ylmethyl)-1,2,3-oxadiazol-3-ium-5-yl)((3-(2-(3-(pyrrolidin-1-yl)oxetan-3-yl)acetamido)-5-(trifluoromethyl)phenyl)carbamoyl)amide] | 0.1 to 1 µM
3 | O=C([N-]c1c[n+](C[C@H]2CC[C@H](NCC(F)(F)F)CC2)no1)Nc1cc(N2CCC(c3ccccc3)C2=O)cc(C(F)(F)F)c1 (stereo partly drawn) [Example 137, ((3-(2-Oxo-3-phenylpyrrolidin-1-yl)-5-(trifluoromethyl)phenyl)carbamoyl)(3-(((1R,4R)-4-((2,2,2-trifluoroethyl)amino)-cyclohexyl)methyl)-1,2,3-oxadiazol-3-ium-5-yl)amide] | < 0.1 µM
4 | O=C(Cc1ccccc1)Nc1cc(NC(=O)[N-]c2c[n+](CC3CCCCN3CC(F)(F)F)no2)cc(C(F)(F)F)c1 (stereo not shown) [Example 142, ((3-(2-Phenylacetamido)-5-(trifluoromethyl)phenyl)carbamoyl)(3-((1-(2,2,2-trifluoroethyl)piperidin-2-yl)methyl)-1,2,3-oxadiazol-3-ium-5-yl)amide] | 0.1 to 1 µM
5 | O=C(Cc1ccccc1)Nc1cc(NC(=O)[N-]c2c[n+](CC3CC(NCc4ccc(O)cn4)C3)no2)cc(C(F)(F)F)c1 (stereo not shown) [Example 134, (3-((3-(((5-Hydroxypyridin-2-yl)methyl)amino)-cyclobutyl)methyl)-1,2,3-oxadiazol-3-ium-5-yl)((3-(2-phenylacetamido)-5-(trifluoromethyl)-phenyl)carbamoyl)amide] | < 0.1 µM
6 | O=C([N-]c1c[n+](C[C@H]2CC[C@H](NC(=O)C(F)(F)F)CC2)no1)Nc1cc(N2CC[C@H](c3ccccc3)C2=O)cc(C(F)(F)F)c1 [Example 145, ((3-((R)-2-Oxo-3-phenylpyrrolidin-1-yl)-5-(trifluoromethyl)phenyl)carbamoyl)(3-(((1R,4R)-4-(2,2,2-trifluoroacetamido)cyclohexyl)methyl)-1,2,3-oxadiazol-3-ium-5-yl)amide] | < 0.1 µM
7 | O=C([N-]c1c[n+](Cc2ccccn2)no1)Nc1cc(NCCc2ccccc2)cc(C(F)(F)F)c1 [Example 53, ((3-(Phenethylamino)-5-(trifluoromethyl)-phenyl)carbamoyl)(3-(pyridin-2-ylmethyl)-1,2,3-oxadiazol-3-ium-5-yl)amide] | 1 to 20 µM
8 | CN1CCC([n+]2cc([N-]C(=O)Nc3cc(NC(=O)Cc4ccccc4)cc(C(F)(F)F)c3)on2)CC1 [Example 100, (3-(1-Methylpiperidin-4-yl)-1,2,3-oxadiazol-3-ium-5-yl)((3-(2-phenylacetamido)-5-(trifluoromethyl)phenyl)carbamoyl)amide] | 0.1 to 1 µM
9 | O=C(Cc1ccccc1)Nc1cc(NC(=O)[N-]c2c[n+](C3CCNCC3)no2)cc(C(F)(F)F)c1 [Example 99, ((3-(2-Phenylacetamido)-5-(trifluoromethyl)-phenyl)carbamoyl)(3-(piperidin-4-yl)-1,2,3-oxadiazol-3-ium-5-yl)amide] | < 0.1 µM
10 | COC(=O)c1ccc(C[n+]2cc([N-]C(=O)Nc3cc(NC(=O)Cc4ccccc4)cc(C(F)(F)F)c3)on2)cc1 [Example 98, (3-(4-(Methoxycarbonyl)benzyl)-1,2,3-oxadiazol-3-ium-5-yl)((3-(2-phenyl-acetamido)-5-(trifluoromethyl)phenyl)carbamoyl)amide] | < 0.1 µM
11 | O=C([N-]c1c[n+](Cc2ccccn2)no1)Nc1cc(NC(=O)c2[nH]cc3c2CCC3)cc(C(F)(F)F)c1 [Example 87, (3-(Pyridin-2-ylmethyl)-1,2,3-oxadiazol-3-ium-5-yl)((3-(2,4,5,6-tetrahydrocyclopenta[c]pyrrole-1-carboxamido)-5-(trifluoromethyl)phenyl)-carbamoyl)amide] | > 20 µM
12 | O=C([N-]c1c[n+](Cc2ccccn2)no1)Nc1cc(NC(=O)C2CCn3cncc3C2)cc(C(F)(F)F)c1 (stereo not shown) [Example 80, (3-(Pyridin-2-ylmethyl)-1,2,3-oxadiazol-3-ium-5-yl)((3-(5,6,7,8-tetrahydroimidazo [1,5-a]pyridine-7-carboxamido)-5-(trifluoromethyl)phenyl)carbamoyl)amide] | 1 to 20 µM
13 | NCc1ccc(CC(=O)Nc2cc(NC(=O)[N-]c3c[n+](Cc4ccccn4)no3)cc(C(F)(F)F)c2)cc1 [Example 27, ((3-(2-(4-(Aminomethyl)phenyl)acetamido)-5-(trifluoromethyl)phenyl)carbamoyl)(3-(pyridin-2-ylmethyl)-1,2,3-oxadiazol-3-ium-5-yl)amide] | 1 to 20 µM
14 | COc1ncc(-c2ccc(C[n+]3cc([N-]C(=O)Nc4cc(NC(=O)Cc5cccnc5)cc(C(F)(F)F)c4)on3)cc2)c(C)n1 [Example 19, (3-(4-(2-Methoxy-4-methylpyrimidin-5-yl)benzyl)-1,2,3-oxadiazol-3-ium-5-yl)((3-(2-(pyridin-3-yl)acetamido)-5-(trifluoromethyl)phenyl)carbamoyl)amide] | < 0.1 µM
15 | NC[C@H]1CC[C@@H](C[n+]2cc([N-]C(=O)Nc3cc(N4CCC(c5ccccc5)C4=O)cc(C(F)(F)F)c3)on2)CC1 (stereo partly drawn) [Example 133, (3-(((1S,4S)-4-(Aminomethyl)cyclohexyl)-methyl)-1,2,3-oxadiazol-3-ium-5-yl)((3-(2-oxo-3-phenylpyrrolidin-1-yl)-5-(trifluoromethyl)-phenyl)carbamoyl)amide] | < 0.1 µM
16 | O=C(Cc1cc(NC(=O)[N-]c2c[n+](Cc3ccccn3)no2)cc(C(F)(F)F)c1)NCc1ccccc1 [Example 90, ((3-(2-(Benzylamino)-2-oxoethyl)-5-(trifluoromethyl)phenyl)carbamoyl)(3-(pyridin-2-ylmethyl)-1,2,3-oxadiazol-3-ium-5-yl)amide] | 0.1 to 1 µM
17 | O=C(Cc1cccc2cn[nH]c12)Nc1cc(NC(=O)[N-]c2c[n+](Cc3ccccn3)no2)cc(C(F)(F)F)c1 [Example 126, ((3-(2-(1H-Indazol-7-yl)acetamido)-5-(trifluoromethyl)phenyl)carbamoyl)(3-(pyridin-2-ylmethyl)-1,2,3-oxadiazol-3-ium-5-yl)amide] | 0.1 to 1 µM
18 | Cc1nc(CC(=O)Nc2cc(NC(=O)[N-]c3c[n+](Cc4ccccn4)no3)cc(C(F)(F)F)c2)cs1 [Example 41, ((3-(2-(2-Methylthiazol-4-yl)acetamido)-5-(trifluoromethyl)phenyl)-carbamoyl)(3-(pyridin-2-ylmethyl)-1,2,3-oxadiazol-3-ium-5-yl)amide] | 0.1 to 1 µM
19 | O=C(Cc1ccccc1)Nc1cc(NC(=O)[N-]c2c[n+](CC3CCCCN3)no2)cc(C(F)(F)F)c1 (stereo not shown) [Example 125, ((3-(2-Phenylacetamido)-5-(trifluoromethyl)-phenyl)carbamoyl)(3-(piperidin-2-ylmethyl)-1,2,3-oxadiazol-3-ium-5-yl)amide] | < 0.1 µM

Same assay, conditions: read-out: Dengue 2 - NS3 protease

Row | SMILES | IC50
20 | Cc1cccc2c1OCC2C(=O)Nc1cc(NC(=O)[N-]c2c[n+](Cc3ccccn3)no2)cc(C(F)(F)F)c1 (stereo not shown) [Example 67] | 0.1 to 1 µM
21 | COc1ncc(-c2ccc(C[n+]3cc([N-]C(=O)Nc4cc(NC(=O)c5ccccc5)cc(C(F)(F)F)c4)on3)cc2)c(C)n1 [Example 15] | < 0.1 µM
22 | O=C([N-]c1c[n+](Cc2ccccn2)no1)Nc1cc(NC(=O)C2CC(Cc3ccccc3)C2)cc(C(F)(F)F)c1 (stereo not shown) [Example 68] | 0.1 to 1 µM
23 | O=C([N-]c1c[n+](Cc2ccccn2)no1)Nc1cc(NC(=O)c2cc3n(n2)CCS(=O)(=O)C3)cc(C(F)(F)F)c1 [Example 64] | 1 to 20 µM
24 | O=C([N-]c1c[n+](Cc2ccccn2)no1)Nc1cc(NC(=O)C23CCC(O)(CC2)C3)cc(C(F)(F)F)c1 [Example 66] | 1 to 20 µM
25 | Cn1ccc(CC(=O)Nc2cc(NC(=O)[N-]c3c[n+](Cc4ccccn4)no3)cc(C(F)(F)F)c2)n1 [Example 40] | 0.1 to 1 µM
26 | N#Cc1ccc2nc(C(=O)Nc3cc(NC(=O)[N-]c4c[n+](Cc5ccccn5)no4)cc(C(F)(F)F)c3)cn2c1 [Example 37] | 1 to 20 µM
27 | COc1ncc(-c2ccc(C[n+]3cc([N-]C(=O)Nc4cc(NC(=O)Cc5ccc(CN)cc5)cc(C(F)(F)F)c4)on3)cc2)c(C)n1 [Example 22] | 0.1 to 1 µM
28 | Cc1oc(-c2ccccc2)nc1CC(=O)Nc1cc(NC(=O)[N-]c2c[n+](Cc3ccccn3)no2)cc(C(F)(F)F)c1 [Example 33] | > 20 µM
29 | O=C([N-]c1c[n+](Cc2ccccn2)no1)Nc1cc(NC(=O)C2CS(=O)(=O)CCO2)cc(C(F)(F)F)c1 (stereo not shown) [Example 88] | > 20 µM
30 | O=C([N-]c1c[n+](Cc2ccccn2)no1)Nc1cc(NC(=O)[C@H]2C[C@](O)(c3ccccn3)C2)cc(C(F)(F)F)c1 [Example 69] | 1 to 20 µM
31 | O=C([N-]c1c[n+](Cc2ccccn2)no1)Nc1cc(NC(=O)c2cncn2C2CC2)cc(C(F)(F)F)c1 [Example 75] | 1 to 20 µM
32 | O=C([N-]c1c[n+](Cc2ccccn2)no1)Nc1cc(NC(=O)C2(Oc3ccc(Cl)cc3)COC2)cc(C(F)(F)F)c1 [Example 83] | 0.1 to 1 µM
33 | O=C([N-]c1c[n+](Cc2ccccn2)no1)Nc1cc(NC(=O)C2CC(F)(F)C23CCC3)cc(C(F)(F)F)c1 (stereo not shown) [Example 85] | 0.1 to 1 µM
34 | COc1ncc(-c2ccc(C[n+]3cc([N-]C(=O)Nc4cc(NC(=O)Cc5ccc(Cl)cc5)cc(C(F)(F)F)c4)on3)cc2)c(C)n1 [Example 17] | < 0.1 µM
35 | O=C(CCCCS(=O)(=O)N1CCCCC1)Nc1cc(NC(=O)[N-]c2c[n+](Cc3ccccn3)no2)cc(C(F)(F)F)c1 [Example 82] | 1 to 20 µM
36 | O=C(C#Cc1ccccc1)Nc1cc(NC(=O)[N-]c2c[n+](Cc3ccccn3)no2)cc(C(F)(F)F)c1 [Example 46] | 0.1 to 1 µM
37 | O=C([N-]c1c[n+](Cc2ccccn2)no1)Nc1cc(NC(=O)c2ccon2)cc(C(F)(F)F)c1 [Example 44] | 1 to 20 µM

From EP4563146A1 (IRBM S.P.A., priority 2023, dated 2025)
